For this experiment, the target named is T1, VMAT2 (Rattus norvegicus, UniProt Q01827).
T1 construct: the VMAT2 present in isolated cerebral cortical vesicles; from tissue; host or cells: rat cerebral cortex, synaptic vesicles purified by differential centrifugation
Kind of experiment: VMAT2 functional assay ([3H]-dopamine uptake into isolated vesicles). The settings on record: rat cortical vesicles, [3H]-dopamine 30 nM, 30 min pre-incubation, 15 min uptake, room temperature. The format is biochemical. The method, then:
VMAT2 Functional Assay determines the interaction between the compounds of the present invention and the VMAT2 present in isolated cerebral cortical vesicles.
Transporter Source: Rat cortical vesicles
Buffers: 100 mM potassium tartrate, 1.7 mM ascorbic acid, 0.05 mM EGTA, 0.1 mM EDTA, 2 mM Magnesium-ATP and 25 mM HEPES.
RadioLigand: • Monoamine: [3H]-Dopamine • Final ligand concentration: 30 nM
Vmax (transport rate): 1800 fmol/mg tissue/min
Positive reference-control: • Reserpine • Concentration: 10 μM
(1) Rat cortical vesicles were purified using differential centrifugation, and the vesicles obtained were diluted in the assay buffer and pre-incubated with the positive-reference-control, the comparative sample or a compound of the invention for 30 minutes at room temperature. […]
(3) After that time, the reaction was stopped by vacuum filtration, and the amount of radioactivity of the radiolabeled [3H]-dopamine trapped onto the filters was determined.
(4) The radioactivity of the [3H]-dopamine trapped was determined using liquid scintillation spectrophotometry (Beckman and Perkin Elmer). The amount of radioactivity obtained with the comparative sample or a compound of the invention was compared with the amount of radioactivity obtained with the positive-reference control (reserpine). […]

The chains behind the UniProt entries cited, without tags or fusion partners.
UniProt Q01827, whole entry: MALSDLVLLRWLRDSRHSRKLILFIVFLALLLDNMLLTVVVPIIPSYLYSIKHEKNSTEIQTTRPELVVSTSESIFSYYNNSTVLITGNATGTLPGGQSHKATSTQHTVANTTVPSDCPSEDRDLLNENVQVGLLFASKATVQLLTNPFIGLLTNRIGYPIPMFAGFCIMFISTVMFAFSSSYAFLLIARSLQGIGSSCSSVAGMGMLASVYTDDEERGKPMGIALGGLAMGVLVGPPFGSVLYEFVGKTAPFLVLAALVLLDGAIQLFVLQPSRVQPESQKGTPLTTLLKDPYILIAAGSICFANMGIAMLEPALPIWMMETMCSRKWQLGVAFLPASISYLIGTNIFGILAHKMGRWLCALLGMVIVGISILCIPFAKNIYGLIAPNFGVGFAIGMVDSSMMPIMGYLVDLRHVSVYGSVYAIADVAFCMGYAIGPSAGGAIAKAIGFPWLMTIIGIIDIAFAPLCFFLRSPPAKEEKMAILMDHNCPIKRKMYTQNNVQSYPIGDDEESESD

Usually IC50 stands for the concentration that gives 50% inhibition.

Like-named read-outs stand apart in the source and are kept apart here.

Take `COc1cc2c(cc1OC)C1CC(=O)C(CC(C)C)CN1CC2` (stereo not drawn) [tetrabenazine, (SS,RR)-3-isobutyl-9,10-dimethoxy-1,3,4,6,7,11b-hexahydro-pyrido[2,1-a]isoquinolin-2-one]: the 50% inhibitory concentration (IC50) reads like this: (Experiment 1, read-out: IC50 (nM) Experiment 1) 10.5 nM; (Experiment 2, read-out: IC50 (nM) Experiment 2) 36.7 nM.

For the origin of these results see US9789072B2, “Therapeutic agents for use in the propylaxis and/or treatment of hyperkinetic movement disorders” (SOM INNOVATION BIOTECH, S.L., priority 2013, dated 2017).
